Test [1] has as its system APJ–β-arrestin 1 interaction. Description: BRET recruitment of β-arrestin 1 to APJ. It is filed as cell-based. Particulars: HEK293, APJ-Venus + β-arrestin1-Rluc; BRET at 15 min; mean ± SEM, four independent experiments. Here is the method: (§1) To detect the potencies of different peptide ligands for APJ in living cells, real-time kinetic bioluminescence resonance energy transfer (BRET) assays were carried out as follows. HEK293 cells were grown to 80–90% confluence in 24-well plates and transiently transfected with various Rluc-, EYFP-, or Venus-tagged constructs ([Chen et al., 2014]; [Liu et al., 2016]). Approximately 36 h after transfection, the long-acting luciferase substrate EnduRen (E6481, Promega, Beijing Biotech Co., Ltd.) was added to each well at a final concentration of 60 μM and cells were incubated for 2 h at 37°C in a 5% CO2 incubator. BRET experiments were carried out using a Mithras LB941 plate reader (Berthold Technologies, Bad Wildbad, Germany) with three filters: a Rluc filter (400–475 nm), a Venus filter (515–575 nm) and an EGFP filter (500–550 nm) ([Liu et al., 2016]; [Ji et al., 2017]). The BRET ratio was calculated as the ratio of the emission at 535 ± 30 nm to that at 485 ± 20 nm. The results are expressed as the mBRET (mBRET = 1,000 × BRET ratio) ([Pfleger et al., 2006a]; [Pfleger et al., 2006b]). […]
(§2) HEK293 cells were transiently co-transfected with the designated Rluc and GFP2 or Venus or EYFP-labeled constructs. […] Kinetic-response and dose-response curve of the recruitment of GRKs or β-arrestin 1 and β-arrestin 2 or AP2 to the APJ by six peptides measured by BRET. […]
A general note: BRET reads energy transfer from a luciferase to a nearby fluorophore.

Protein sequences, listed by entry. Tags and fused reporters are not part of them. Lines headed by an entry give the natural chain unless they say otherwise; changes in a name come on top.
UniProt P35414: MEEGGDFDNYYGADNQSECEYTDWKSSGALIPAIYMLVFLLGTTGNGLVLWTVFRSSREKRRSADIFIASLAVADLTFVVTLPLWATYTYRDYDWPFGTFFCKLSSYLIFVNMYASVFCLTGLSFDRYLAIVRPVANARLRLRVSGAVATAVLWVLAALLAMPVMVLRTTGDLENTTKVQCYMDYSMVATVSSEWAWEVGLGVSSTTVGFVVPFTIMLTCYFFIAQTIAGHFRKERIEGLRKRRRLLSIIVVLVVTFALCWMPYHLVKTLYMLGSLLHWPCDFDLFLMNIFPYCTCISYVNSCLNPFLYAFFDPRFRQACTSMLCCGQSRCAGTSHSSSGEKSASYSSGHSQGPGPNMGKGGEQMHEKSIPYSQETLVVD

The subject of test [2] is APJ–β-arrestin 2 interaction. The test is described as follows: BRET recruitment of β-arrestin 2 to APJ. It is filed as cell-based. The note with it: HEK293, APJ-Venus + β-arrestin2-Rluc; BRET at 15 min; mean ± SEM, four independent experiments. Here is the method: as §1, §2
The subject of another test is APJ–GRK2 interaction. The test is described as follows: BRET recruitment of GRK2 to APJ. It is filed as cell-based. Particulars: HEK293, APJ-Rluc + GRK2-GFP2; BRET at 10 min; mean ± SEM, four independent experiments. Here is the method:
as §1, §2

A further test concerns APJ–GRK5 interaction. Description: BRET recruitment of GRK5 to APJ. Particulars: HEK293, APJ-Rluc + GRK5-GFP2; BRET at 10 min; mean ± SEM, four independent experiments. It is filed as cell-based. Here is the method: as §1, §2
A further test addresses Apelin receptor (APJ) (UniProt P35414). Description: radioligand binding; competition binding: HEK-293/APJ membrane preparation 20 μg/well, 0.1 nM [125I]-apelin-13, test peptides in 5-fold dilutions starting at 10 µM; 50 mM HEPES pH 7.4, 5 mM MgCl2, 1 mM CaCl2, 0.2% BSA; 30°C, 2 h; Ki calculated from IC50.

The term Ki denotes a measure of affinity in units of concentration, obtained from inhibition or displacement. The term pKi denotes the Ki on a negative log10 scale, so that one unit is a factor of ten.

Consider `CSCC[C@H](NC(=O)[C@@H]1CSSC[C@H](NC(=O)[C@H](CC(N)=O)NC(=O)[C@H](Cc2c[nH]cn2)NC(=O)[C@H](CCCCN)NC(=O)[C@H](CCCNC(=N)N)NC(=O)[C@@H](N)CC(C)C)C(=O)N[C@@H](CC(C)C)C(=O)N[C@@H](CCC(N)=O)C(=O)N[C@@H](CCCNC(=N)N)C(=O)N[C@@H](CCCNC(=N)N)C(=O)N1)C(=O)N1CCC[C@H]1C(=O)N[C@@H](CC(C)C)C(=O)N[C@@H](Cc1c[nH]cn1)C(=O)N[C@@H](CO)C(=O)N[C@@H](CCCNC(=N)N)C(=O)N[C@H](C(=O)N1CCC[C@H]1C(=O)N[C@@H](Cc1ccccc1)C(=O)N1CCC[C@H]1C(=O)O)C(C)C` [Elabela-21], for which the “LogEC50, β-arrestin 1” value in test [1] is reported as −7.183 ± 0.061. For the same molecule, the “LogEC50, β-arrestin 2” value in test [2] was −7.175 ± 0.14. Besides, the “LogEC50, GRK2” value in the test on APJ–GRK2 interaction is on record as −7.473 ± 0.1371. Further, in the test with APJ–GRK5 interaction, the “LogEC50, GRK5” value is −7.233 ± 0.2301.
Apelin-17 (peptide): in the test with Apelin receptor (APJ), the Ki was 4.65 nM and the pKi is 8.33.

These data come from paper PMC7970304, “The Effects of Apelin and Elabela Ligands on Apelin Receptor Distinct Signaling Profiles” (Frontiers in Pharmacology, 2021).
